Tests used:
[1] = tested on: fluorometric derivative of substrate S2 (PT: NH2-GGVR)
[2] = tested on: fluorometric derivative of substrate S1 (HAE-PT)
[3] = tested on: thrombin tripeptide substrate tosyl-gly-pro-arg-amino methyl coumarin (Sigma)

Substance: human alpha thrombin, commercial standard (Sigma)
- specificity constant kcat/KM [1]: 1.03e+07 M⁻¹ s⁻¹
- specificity constant kcat/KM [2]: 8.9e+06 M⁻¹ s⁻¹
- KM for the tripeptide substrate, fluorometric assay of released AMC, substrate 0-50 µM, Line-Weaver-Burke plot [3]: commercially available human thrombin and the activated model adzyme had comparable KM values for this standard substrate, 4.2 µM and 3.9 µM, respectively
